Assay results reported in ChEMBL document CHEMBL4765234, “The Discovery, Preclinical, and Early Clinical Development of Potent and Selective GPR40 Agonists for the Treatment of Type 2 Diabetes Mellitus (LY2881835, LY2922083, and LY2922470)” (J Med Chem, 2016).
Active and inactive are the calls of the source. No cut-off for these calls is given here.

Sequences of proteins named here, by UniProt entry; tags and fusion partners are left off.
UniProt O14842, whole entry: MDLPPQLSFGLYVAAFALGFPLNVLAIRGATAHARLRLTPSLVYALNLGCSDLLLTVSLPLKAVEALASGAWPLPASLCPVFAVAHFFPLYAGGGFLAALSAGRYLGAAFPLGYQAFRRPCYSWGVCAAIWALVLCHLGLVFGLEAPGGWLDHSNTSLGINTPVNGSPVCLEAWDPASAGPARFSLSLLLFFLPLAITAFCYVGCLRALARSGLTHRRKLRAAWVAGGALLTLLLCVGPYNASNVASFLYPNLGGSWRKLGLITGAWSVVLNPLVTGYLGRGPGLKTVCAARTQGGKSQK

Molecular target: Free fatty acid receptor 1 (Homo sapiens, UniProt O14842)
Experiment: Displacement of [3H]-(S)-3-(isoxazol-3-yl)-3-(4-((2-phenyl-[1,2,4]triazolo[1,5-a]pyridin-6-yl)methoxy)phenyl)propanoic acid from human recombinant full-length GPR40 expressed in human HEK293 cells assessed as dissociation constant at 1.37 to 1000 nM measured after 180 mins by radioligand competitive assay
Assay type: cell-based
Details: dose 1.37-1000 nM

## Cc1cc(OCCCS(C)(=O)=O)cc(C)c1-c1cccc(COc2ccc3c(c2)OC[C@H]3CC(=O)O)c1
  Activity: inactive
